Test results as given in patent US20060234308.

System: Cys-βAla-Leu-Arg-Arg-Ala-Ser-Leu-Gly-NH2

Protein kinase A
signal intensity of the spot (32P incorporation, PhosphorImager) on modified glass, against the Ser->Ala control peptide: the signal for the substrate amino acid sequence is a factor of 4-5 larger than the signal for the corresponding control amino acid sequence | signal intensity of the spot (32P incorporation, PhosphorImager) on modified glass, against the Ser->Ala control peptide (FIG. 4): The signal intensity for the purified amino acid sequence is approximately 300 times higher than that for the corresponding control amino acid sequence | signal intensity of the spot (32P incorporation, PhosphorImager) on modified glass, against the Ser->Ala control peptide (FIG. 5): the signal intensity for the substrate amino acid sequence is 800% higher than that for the control product | signal intensity of the spot (32P incorporation, PhosphorImager) on modified glass, purified peptide against the raw synthesis product of the same peptide (FIG. 4): the signal intensity for the purified amino acid sequence is 500% higher than that for the synthesis product
